This is a selection; strong and weak results do not stand in their true shares. Some tests of the compounds listed are not included; inactive here does not mean inactive elsewhere. The source made the active and inactive calls.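 How the source made its calls: active means B-score under library mean minus 3 SD, initial fluorescence not abnormally high, positive integrated signal ratio; inactive means the rest.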

Protein sequences, listed by entry. Tags and fused reporters are not part of them.
UniProt Q61143, whole entry: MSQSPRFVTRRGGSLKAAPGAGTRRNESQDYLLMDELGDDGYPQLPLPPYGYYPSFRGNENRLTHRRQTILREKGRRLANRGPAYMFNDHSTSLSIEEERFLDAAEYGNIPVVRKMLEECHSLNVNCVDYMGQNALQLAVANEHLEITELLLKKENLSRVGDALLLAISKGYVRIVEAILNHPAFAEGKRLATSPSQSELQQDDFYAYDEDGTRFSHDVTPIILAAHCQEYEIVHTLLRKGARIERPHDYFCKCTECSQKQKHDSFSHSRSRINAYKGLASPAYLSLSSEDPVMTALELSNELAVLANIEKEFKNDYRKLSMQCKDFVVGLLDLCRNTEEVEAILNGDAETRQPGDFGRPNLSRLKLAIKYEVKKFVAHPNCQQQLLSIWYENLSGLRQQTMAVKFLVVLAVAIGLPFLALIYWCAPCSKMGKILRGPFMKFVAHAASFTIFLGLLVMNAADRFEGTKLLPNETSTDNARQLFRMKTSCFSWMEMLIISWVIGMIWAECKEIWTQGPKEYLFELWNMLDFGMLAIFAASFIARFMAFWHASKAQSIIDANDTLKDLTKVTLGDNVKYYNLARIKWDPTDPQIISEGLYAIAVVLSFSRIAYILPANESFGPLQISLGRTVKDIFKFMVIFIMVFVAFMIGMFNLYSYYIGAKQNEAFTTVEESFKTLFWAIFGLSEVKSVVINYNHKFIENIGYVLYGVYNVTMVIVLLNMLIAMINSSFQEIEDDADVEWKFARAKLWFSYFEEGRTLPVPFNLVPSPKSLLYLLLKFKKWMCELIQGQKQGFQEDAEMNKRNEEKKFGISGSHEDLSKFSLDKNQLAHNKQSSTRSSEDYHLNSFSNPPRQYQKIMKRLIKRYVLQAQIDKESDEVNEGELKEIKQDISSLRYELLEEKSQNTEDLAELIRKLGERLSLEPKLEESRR

This test addresses Short transient receptor potential channel 6 (Mus musculus) (UniProt Q61143). As to the kind of experiment: mouse TRPC6 channel inhibitors, primary screen, cell-based, HEK293, membrane potential dye (AID 2553).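 On B-score: B-score derived from integrated fluorescence ratio over the kinetic read; more negative B-score means stronger inhibition of depolarization.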 The following applies: ACh-evoked depolarization, at 10 µM; stronger effect = lower value.
As for `C=CCN1CCN(CCOC(=O)C(O)(c2ccccc2)c2ccccc2)CC1`, the molecule was called inactive.

Regarding `O=C(NCC1(N2CCCCC2)CCCCC1)c1cc(F)c(F)cc1Cl`, the molecule was classed as inactive.

Consider `Cc1cc(C(=O)NCC2(N3CCCCC3)CCCCC2)ccc1[N+](=O)[O-]`, for which the molecule was called inactive.

For the molecule `CCN1CCCC(OC(=O)C2(O)c3ccccc3C=Cc3ccccc32)C1` (centres undefined), the molecule was called inactive.

`O=C(NCC1(N2CCCCC2)CCCCC1)c1cccc(Br)c1`: the result was inactive.

In the case of `COc1ccc(C(=O)NCC2(N(C)C)CCCCC2)cc1`, the molecule was classed as inactive.

With `Cc1ccccc1C(=O)NCC1(N2CCCCC2)CCCCC1`, the call was inactive.

`CN(C)C1CCCC1OC(=O)C(O)(c1ccccc1)c1ccccc1` (centres undefined): the outcome was inactive.

As for `CN(C)c1ccc(C(=O)NCC2(N(C)C)CCCCC2)cc1`, the result was inactive.

As for `CC(C)N1C(=O)CC2(CCN(CCOC(=O)C(O)(c3ccccc3)c3ccccc3)CC2)C1=O`, the call was inactive.

With `CCN(CC)CC(C)C(C)OC(=O)C(O)(c1ccccc1)c1ccccc1` (centres undefined), the B-score was active: -5.03.

Turning to `COc1cc(SC)ccc1C(=O)NCC1(N(C)C)CCCCC1`, the outcome was inactive.

With `Cc1ccc(C(=O)NCC2(N3CCCCC3)CCCCC2)cc1`, the call was inactive.

In the case of `O=C(NCC1(N2CCCCC2)CCCCC1)c1cc([N+](=O)[O-])ccc1Cl`, the outcome was inactive.

Take `CN1[C@@H]2CC[C@H]1CC(OC(=O)C(O)(c1ccccc1)c1ccccc1)C2` (some centres undefined): the B-score was active: -5.3.

For the molecule `COc1ccc(Br)c(C(=O)NCC2(N3CCCCC3)CCCCC2)c1`, the result was inactive.

In the case of `CN(C)c1cccc(C(=O)NCC2(N(C)C)CCCCC2)c1`, the outcome was inactive.

With `CC(C)Oc1ccc(C(=O)NCC2(N(C)C)CCCCC2)cc1`, the molecule was classed as inactive.

Turning to `O=C(OC1CN2CCC1CC2)C(CO)(c1ccccc1)c1ccccc1` (centres undefined), the B-score was active: -7.87.

On to `COc1cccc(C(=O)NCC2(N3CCCCC3)CCCCC2)c1`, for which the outcome was inactive.

As to `COc1ccc(Cl)cc1C(=O)NCC1(N(C)C)CCCCC1`, the result was inactive.

Consider `O=C(NCC1(N2CCCCC2)CCCCC1)c1cccc(Cl)c1`, for which the molecule was classed as inactive.

As to `CN(C)C1(CNC(=O)c2ccc(Br)cc2)CCCCC1`, the outcome was inactive.

As to `COc1cc(C(=O)NCC2(N(C)C)CCCCC2)c([N+](=O)[O-])cc1OC`, the result was inactive.

Values taken from PubChem BioAssay AID2553 (Johns Hopkins Ion Channel Center, 2010).
